Consider one molecule from publication PMC6437697 (Journal of Medicinal Chemistry, 2019).

pEC50: −log10 of the molar value.

A short description of this data set: in vitro. The settings on record: human.

A word on the pEC50: it is the negative decadic logarithm of the EC50, by convention in mol/L. A higher pEC50 goes with a low EC50. Regarding `CC(C)c1nc(-c2ccc(NC(=O)Nc3cccc(C(F)(F)F)c3)c3ccccc23)c2c(N)nccn12` [KIRA3, reference compound], the pEC50 is under 4.31.
